Reference: patent publication US20230234957A1, “PROTEIN TAG TO INDUCE LIGAND DEPENDENT DEGRADATION OF PROTEIN/PROTEIN-FUSIONS” (DANA-FARBER CANCER INSTITUTE, INC., priority 2020, published 2023)

Target: BRD4BD1L94V-EGFP (Homo sapiens, UniProt O60885, L94V)
Assay: Cellular degradation EGFP/mCherry reporter assay (Acumen) in Flp293T cells

Row | Structure (SMILES) | degradation of BRD4BD1L94V | dTAG BRD4BD1 L94V degraded
1 | COc1ccc2c(c1)C(c1ccc(Cl)cc1)=N[C@@H]([C@@H](C)C(=O)NCCCCCNC(=O)COc1cccc3c1C(=O)N(C1CCC(=O)NC1=O)C3=O)c1nnc(C)n1-2 (stereo partly drawn) [Compound 1, (2R)-2-((4S)-6-(4-chlorophenyl)-8-methoxy-1-methyl-4H-benzo[f][1,2,4]triazolo [4,3-a][1,4]diazepin-4-yl)-N-(5-(2-((2-(2,6-dioxopiperidin-3-yl)-1,3-dioxoisoindolin-4-yl)oxy)acetamido)pentyl)propanamide] | able to potently degrade | 
2 | COc1ccc2c(c1)C(c1ccc(Cl)cc1)=N[C@@H]([C@@H](C)C(=O)NCCOCCOCCNC(=O)COc1cccc3c1C(=O)N(C1CCC(=O)NC1=O)C3=O)c1nnc(C)n1-2 (stereo partly drawn) [Compound 5, (2R)-2-((4S)-6-(4-chlorophenyl)-8-methoxy-1-methyl-4H-benzo[f][1,2,4]triazolo [4,3-α][1,4]diazepin-4-yl)-N-(2-(2-(2-(2-((2-(2,6-dioxopiperidin-3-yl)-1,3-dioxoisoindolin-4-yl)oxy)acetamido)ethoxy)ethoxy)ethyl) propanamide] |  | ~75%
